In ChEMBL document CHEMBL3112399, “Discovery of pyrazolo[3,4-d]pyrimidine derivatives as GPR119 agonists” (Bioorg Med Chem Lett, 2014) one finds Emax data, which are given here for one compound.

What is called Emax is the size of the effect at its maximum, as opposed to the concentration needed.

The subject of this experiment is HIT-T15. Kind of experiment: Agonist activity at GPR119 receptor in hamster HIT-T15 cells assessed as intracellular cAMP level relative to AR-231,453. In kind it is cell-based. As to conditions: Cricetinae.

With `CC(C)(C)OC(=O)N1CCC(n2ncc3c(Oc4ccccc4C#N)ncnc32)CC1`, the Emax is 61%.
